The target in this assay is T1, HDAC6 (Homo sapiens, UniProt Q9UBN7).
T1 construct: purchased BPS Biosciencies (San Diego, Calif.)
T1 sequence (Q9UBN7 1-1215): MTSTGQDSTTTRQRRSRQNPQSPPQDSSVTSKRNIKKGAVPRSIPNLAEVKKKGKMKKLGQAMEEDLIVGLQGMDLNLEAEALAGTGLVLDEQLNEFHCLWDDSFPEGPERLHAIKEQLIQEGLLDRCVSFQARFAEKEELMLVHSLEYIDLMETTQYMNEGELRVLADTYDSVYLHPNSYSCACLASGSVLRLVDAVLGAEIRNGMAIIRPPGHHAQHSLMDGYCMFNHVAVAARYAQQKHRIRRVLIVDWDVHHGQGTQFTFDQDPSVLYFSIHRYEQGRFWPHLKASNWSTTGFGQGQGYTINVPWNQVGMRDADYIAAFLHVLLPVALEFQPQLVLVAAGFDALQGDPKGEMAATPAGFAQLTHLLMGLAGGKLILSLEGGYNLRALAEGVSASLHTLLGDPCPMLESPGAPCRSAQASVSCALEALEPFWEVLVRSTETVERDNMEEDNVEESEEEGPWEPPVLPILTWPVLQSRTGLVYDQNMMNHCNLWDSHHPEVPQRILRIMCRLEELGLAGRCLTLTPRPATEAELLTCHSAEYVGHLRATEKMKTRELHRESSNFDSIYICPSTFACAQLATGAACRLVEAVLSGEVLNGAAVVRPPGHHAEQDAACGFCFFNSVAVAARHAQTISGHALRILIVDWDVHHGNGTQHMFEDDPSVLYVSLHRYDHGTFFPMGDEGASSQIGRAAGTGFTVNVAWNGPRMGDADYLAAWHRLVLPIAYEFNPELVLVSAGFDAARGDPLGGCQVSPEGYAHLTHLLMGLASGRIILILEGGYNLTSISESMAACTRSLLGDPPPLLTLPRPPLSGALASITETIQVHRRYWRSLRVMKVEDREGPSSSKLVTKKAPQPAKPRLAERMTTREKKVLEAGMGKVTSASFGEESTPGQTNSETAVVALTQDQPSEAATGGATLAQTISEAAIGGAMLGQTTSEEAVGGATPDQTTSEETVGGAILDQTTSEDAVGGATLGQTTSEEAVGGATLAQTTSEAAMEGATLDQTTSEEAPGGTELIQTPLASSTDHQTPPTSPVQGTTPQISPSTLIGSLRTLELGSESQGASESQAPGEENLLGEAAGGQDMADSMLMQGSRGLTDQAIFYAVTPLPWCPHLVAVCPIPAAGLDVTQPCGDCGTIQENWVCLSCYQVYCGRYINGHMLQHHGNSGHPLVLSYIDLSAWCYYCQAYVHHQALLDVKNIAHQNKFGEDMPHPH
In words: Kinetic HDAC enzyme inhibition assay, HDAC6. The class given is biochemical.

Results on 1 compound are retold here after patent US20130225543A1, “SPECIFIC REGULATION OF CYTOKINE LEVELS BY HDAC6 INHIBITORS” (Acetylon Pharmaceuticals, priority 2010, published 2013).

As for `CC(/C=C/C(=O)NO)=C\[C@@H](C)C(=O)c1ccc(N(C)C)cc1` [Trichostatin A], the “Selectivity for HDAC6 versus HDAC3” value is listed as “non selective”.
